Measured values published in patent publication US6660742B2, “Compositions and methods of the use thereof achiral analogues of CC-1065 and the duocarmycins” (priority 2000, dated 2003).

Columns and labels:
[1] = favoring the natural (+)-isomer; cited from earlier work
MDA-MB-231/ATCC = conditions: read-out: LC50
MCF7/ADR-RES = test: NCI screen, MCF7/ADR-RES (Breast Cancer); assay type: cell-based, human; conditions: read-out: LC50 (the source's name)

CPI-CDPI1
difference in cytotoxicity between enantiomers [1]: about 150 fold

CPI-PDE-I1
difference in cytotoxicity between enantiomers [1]: about 150 fold

O=C(Nc1cc(O)ccc1CCCl)c1cc2cc(NC(=O)c3cc4ccccc4o3)ccc2[nH]1 [Compound 1, 4-(2-Chloroethyl)-3-[5-(5-benzofuran-2-carboxamido)indole-2-carboxamido]phenol]
CC50 (MDA-MB-231/ATCC): 49.6 µM | CC50 (MDA-MB-435): 7.45 µM | CC50 (SNB-75): 59 µM | CC50 (786-0): 98.3 µM | CC50 (MDA-N): 19.7 µM | CC50 (LOX IMVI): 42.2 µM | CC50 (NCI-H322M): 33 µM | CC50 (MALME-3M): 6.87 µM | CC50 (A549/ATCC): 24.8 µM | CC50 (HT29): 96.6 µM | CC50 (UACC-257): 6.18 µM | CC50 (HCT-116): 24.3 µM | CC50 (OVCAR-4): 13.5 µM | CC50 (TK-10): 19.9 µM | CC50 (SF-268): 57.3 µM | CC50 (HOP-92): 15.6 µM | CC50 (SF-295): 24.2 µM | CC50 (NCI-H226): 44.4 µM | CC50 (SW-620): 53.5 µM | CC50 (OVCAR-3): 10.9 µM | CC50 (SN12C): 43.5 µM | CC50 (IGROV1): 7.77 µM | CC50 (NCI-H23): 6.84 µM | CC50 (DU-145): 27.4 µM | CC50 (NCI-H522): 9.33 µM | CC50 (SK-MEL-5): 6.44 µM | CC50 (KM12): 65 µM | CC50 (EKVX): 13.7 µM | CC50 (CAKI-1): 27.7 µM | CC50 (ACHN): 23.4 µM | CC50 (M14): 6.81 µM | CC50 (PC-3): 18.2 µM | CC50 (SK-MEL-2): 5.43 µM | CC50 (MCF7/ADR-RES): 8.7 µM | CC50 (HCT-15): 16.7 µM | CC50 (OVCAR-8): 8.12 µM | CC50 (UACC-62): 6.18 µM | CC50 (HOP-62): 19.5 µM | CC50 (SK-OV-3): 26.7 µM | CC50 (SNB-19): 51.6 µM | CC50 (HCC-2998): 7.22 µM
